Columns and labels:
[1] = Inhibitory selectivity at Adenosine A3 receptor compared to Adenosine 1 receptor.
[2] = Inhibitory selectivity at Adenosine 2A receptor compared to Adenosine 1 receptor.
[3] = tested on: Adenosine receptor A2a (Bos taurus); conditions: Striatum, Membrane, concentration not given here
[4] = Inhibitory selectivity at Adenosine A3 receptor compared to Adenosine 2A receptor.
[5] = biological target: Adenosine receptor A1 (Bos taurus, UniProt P28190)

Sequences of proteins named here, by UniProt entry; tags and fusion partners are left off.
UniProt P28190, whole entry: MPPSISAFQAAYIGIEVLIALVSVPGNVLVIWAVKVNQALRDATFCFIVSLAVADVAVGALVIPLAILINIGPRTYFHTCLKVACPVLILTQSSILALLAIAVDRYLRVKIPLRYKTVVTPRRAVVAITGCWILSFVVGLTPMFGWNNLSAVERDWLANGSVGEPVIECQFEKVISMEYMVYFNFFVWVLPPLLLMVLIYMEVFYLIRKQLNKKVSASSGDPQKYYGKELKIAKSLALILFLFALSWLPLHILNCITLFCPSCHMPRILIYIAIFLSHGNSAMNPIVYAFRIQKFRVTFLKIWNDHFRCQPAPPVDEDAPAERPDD

| SMILES | Selectivity [1] | Selectivity [2] | inhibition [3] [%] | Selectivity [4] | Ki [5] [µM] |
| --- | --- | --- | --- | --- | --- |
| C[C@@]1(O)[C@@H](CO)O[C@@H](n2cnc3c(N)ncnc32)[C@@H]1O | > 202 | > 202 | 12 |  |  |
| C[C@H](Cc1ccccc1)Nc1ncnc2c1ncn2[C@@H]1O[C@H](CO)[C@@H](O)[C@@]1(C)O | 230 | 1580 |  | 0.14 |  |
| C[C@@]1(O)[C@H](O)[C@@H](CO)O[C@H]1n1cnc2c(N)ncnc21 |  |  |  |  | 0.74 |
| C[C@@H](Cc1ccccc1)Nc1ncnc2c1ncn2C1O[C@H](CO)[C@@H](O)[C@@]1(C)O (stereo partly specified) | 200 | > 200 | 17 | < 1 |  |

From ChEMBL document CHEMBL1131221, “2'-C-Methyl analogues of selective adenosine receptor agonists: synthesis and binding studies” (J Med Chem, 1998)
